Patent US9040518B2, “Chemical compounds” (GlaxoSmithKline LLC, priority 2010, dated 2015)

Amino acid sequences for entries named in this document (tags omitted). A change or cut given only in a name is not applied to a line headed by its entry.
UniProt Q12908: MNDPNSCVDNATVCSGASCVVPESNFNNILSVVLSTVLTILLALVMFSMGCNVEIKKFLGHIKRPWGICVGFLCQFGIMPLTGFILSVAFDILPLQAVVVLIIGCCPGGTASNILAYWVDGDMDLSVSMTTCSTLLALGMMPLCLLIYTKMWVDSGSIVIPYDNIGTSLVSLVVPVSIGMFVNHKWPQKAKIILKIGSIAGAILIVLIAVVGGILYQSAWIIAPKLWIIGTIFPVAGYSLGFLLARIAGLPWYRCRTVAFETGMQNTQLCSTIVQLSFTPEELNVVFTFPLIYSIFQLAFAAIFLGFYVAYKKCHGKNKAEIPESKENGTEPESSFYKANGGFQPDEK

Biological target: ileal bile acid cotransporter (iBAT) (Homo sapiens (Human), UniProt Q12908)
Assay: Human iBAT inhibition: [3H]-taurocholate uptake into HEK293 cells expressing human iBAT
Type: cell-based
Conditions: HEK293 cells transduced with human iBAT Bacmam virus, 90 minutes at ambient temperature, mean of at least 2 datapoints
Experimental: Method for Determination of Human iBAT Inhibition:
In preparation for measurement of bile acid uptake into cells expressing the ileal bile acid cotransporter (iBAT), HEK293 cells were cultured in DMEM/F12 supplemented with 10% FBS. Twenty four hours prior to running an experiment, cells were harvested when at a confluence of 80-90%. Cells were seeded in poly-d-lysine coated plates at 50,000 cells per well, and human iBAT Bacmam virus was added such that each well contains 3.67×10e6 pfu (73.4pfu/cell). Each assay plate was covered with Breathe Easy Seal and placed in an incubator for 24 hours to allow expression of the transporter.
On the day of the uptake experiment, 10 mM HEPES was added to Hank's Balanced Salt Solution, and the pH was adjusted to 7.4 with TRIS (HBSSH). The assay buffer was prepared by adding […] [^3H]-taurocholate and 10 μM cold taurocholate to room temperature HBSSH. A separate washing buffer was prepared by adding 10 μM cold taurocholate to HBSSH (˜30 ml per assay plate) and placed on ice. Using 100% DMSO, 8 point, 3-fold dilution curves for each test compound was prepared starting at 200 μM. […] The amount of [^3H]-taurocholate in cell lysate was quantitated using a microplate scintillation counter on the following day. […]

**Q.** `CCCC[C@]1(CC)CS(=O)(=O)c2cc(C(=O)NC(CC(=O)O)CC(=O)O)c(OC)cc2[C@@H](c2ccccc2)N1` [Example 70, 3-({[(3R,5R)-3-butyl-3-ethyl-7-(methyloxy)-1,1-dioxido-5-phenyl-2,3,4,5-tetrahydro-1,4-benzothiazepin-8-yl]carbonyl}amino)pentanedioic acid] was tested. Which IC50 did it give?
**A.** The IC50 was 100 nM.

**Q.** How did the IC50 turn out when `CCCC[C@]1(CC)CS(=O)(=O)c2cc(C(C)=O)c(OC)cc2[C@@H](c2ccccc2)N1` [Example 71, 1-[(3R,5R)-3-butyl-3-ethyl-7-(methyloxy)-1,1-dioxido-5-phenyl-2,3,4,5-tetrahydro-1,4-benzothiazepin-8-yl]ethanone] was run?
**A.** The IC50 was 100 nM.
